Source: publication PMC3820426

B1: N^5-CAIR synthetase (Aspergillus clavatus NRRL 1) (protein)
chain: MWNSRKVGVLGGGQLGRMLVESANRLNIQVNVLDADNSPAKQISAHDGHVTGSFKEREAVRQLAKTCDVVTAEIEHVDTYALEEVASEVKIEPSWQAIRTIQNKFNQKEHLRKYGIPMAEHRELVENTPAELAKVGEQLGYPLMLKSKTMAYDGRGNFRVNSQDDIPEALEALKDRPLYAEKWAYFKMELAVIVVKTKDEVLSYPTVETVQEDSICKLVYAPARNVSDAINQKAQELARKAVAAFDGKGVFGVEMFLLEDDSIMLCEIASRIHNSGHYTIEGCALSQFDAHLRAILDLPIPAQSLEIRQPSIMLNIIGGAAPDTHLQAAECALSIPNASIHLYSKGAAKPGRKMGHITVTAPTMHEAETHIQPLIDVVDRIRA

Each molecule was assayed on Nc1cncn1[C@@H]1O[C@H](COP(=O)(O)O)[C@@H](O)[C@H]1O (assay: purified protein). Conditions: full reaction, 1 mM ATP, 1 mM NaHCO3, 50 mM Hepes pH 7.8, 37 °C.

Molecule	Km [µM]	kcat	kcat/Km [M⁻¹ s⁻¹]
N^5-CAIR synthetase (Aspergillus clavatus NRRL 1; R271A)	254 ± 53	0.11 ± 0.007 min⁻¹	8.33
N^5-CAIR synthetase (Aspergillus clavatus NRRL 1; H273Q)	28 ± 4	0.19 ± 0.007 min⁻¹	117
N^5-CAIR synthetase (Aspergillus clavatus NRRL 1; Y152F)	68 ± 6	1,600 ± 45 min^-1	400000
N^5-CAIR synthetase (Aspergillus clavatus NRRL 1; R271Q)	87 ± 19	0.4 ± 0.03 min⁻¹	66.7
N^5-CAIR synthetase (Aspergillus clavatus NRRL 1; R271K)	608 ± 83	50 ± 2 min⁻¹	1270

Substrate: Nc1cncn1[C@@H]1O[C@H](COP(=O)(O)O)[C@@H](O)[C@H]1O
Assay: purified protein
Conditions: full reaction, 1 mM ATP, 1 mM NaHCO3, 50 mM Hepes pH 7.8, 37 °C
Remark: another data set of the same source

Molecule	Km [µM]
B1	22 ± 4
